Target: hTAS2R38 (Homo sapiens, UniProt P59533)
Experiment: FLIPR assay, heterologous expression of hTAS2R38
Format: cell-based

Protein sequences, listed by entry. Tags and fused reporters are not part of them.
UniProt P59533, whole entry A49P/I296V: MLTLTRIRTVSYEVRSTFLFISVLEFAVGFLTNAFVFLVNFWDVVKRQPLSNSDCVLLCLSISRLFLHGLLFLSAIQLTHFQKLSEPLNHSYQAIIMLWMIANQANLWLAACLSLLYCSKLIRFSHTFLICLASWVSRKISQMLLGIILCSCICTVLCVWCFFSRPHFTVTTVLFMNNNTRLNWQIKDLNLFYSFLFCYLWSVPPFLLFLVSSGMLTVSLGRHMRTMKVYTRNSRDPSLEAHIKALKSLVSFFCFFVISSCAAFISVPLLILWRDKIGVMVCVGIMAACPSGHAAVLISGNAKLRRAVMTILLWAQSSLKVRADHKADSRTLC

O=c1cc(-c2ccccc2)[nH]c(=S)[nH]1
Approx. Threshold: 0.15 µM
EC50: 500 nM
receptor activation (in words): activated
